Experimental data from ChEMBL document CHEMBL4049386, “Discovery of an Inhibitor of the Proteasome Subunit Rpn11” (J Med Chem, 2017).

Sequences of proteins named here, by UniProt entry; tags and fusion partners are left off.
UniProt O00487, whole entry: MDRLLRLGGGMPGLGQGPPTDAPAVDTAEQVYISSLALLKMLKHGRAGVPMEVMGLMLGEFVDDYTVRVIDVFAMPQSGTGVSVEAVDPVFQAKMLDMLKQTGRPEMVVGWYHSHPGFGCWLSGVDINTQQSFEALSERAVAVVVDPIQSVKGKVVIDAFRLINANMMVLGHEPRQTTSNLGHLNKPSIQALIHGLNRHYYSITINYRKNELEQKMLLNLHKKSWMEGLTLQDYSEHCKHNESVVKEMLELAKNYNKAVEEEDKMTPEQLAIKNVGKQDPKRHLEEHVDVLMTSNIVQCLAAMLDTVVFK

Biological target: 26S proteasome non-ATPase regulatory subunit 14 (Homo sapiens, UniProt O00487)
Assay: Inhibition of 26S proteasome regulatory subunit RPN11 deubiquitinating activity in beta5 inhibitor MG132 pretreated human HeLa cells expressing UbG76V-GFP assessed as reduction in UbG76V-GFP degradation rate by fluorescence microscopic method
Type: cell-based

Question: Which IC50 does the source give for `CNC(=O)c1cnc2c(SSc3cccc4cc(C(=O)NC)cnc34)cccc2c1` here?
Answer: Its IC50 is 2600 nM.
